# Data taken from patent US7205403B2, “8-Heteroaryl xanthine adenosine A2B receptor antagonists” (King Pharmaceuticals Research and Development, Inc., priority 2002, dated 2007).
# Protein sequences, listed by entry. Tags and fused reporters are not part of them.
# UniProt P30542, whole entry: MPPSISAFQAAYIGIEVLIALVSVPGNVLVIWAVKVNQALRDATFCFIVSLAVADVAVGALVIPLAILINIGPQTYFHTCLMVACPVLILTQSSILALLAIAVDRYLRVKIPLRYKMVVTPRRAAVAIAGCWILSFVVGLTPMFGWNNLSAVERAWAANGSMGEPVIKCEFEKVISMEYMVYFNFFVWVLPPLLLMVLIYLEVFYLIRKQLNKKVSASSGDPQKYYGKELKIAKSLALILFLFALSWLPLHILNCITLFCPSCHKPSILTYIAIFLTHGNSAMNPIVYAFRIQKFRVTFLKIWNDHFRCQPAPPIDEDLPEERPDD
# Molecular target: human A1 adenosine receptor (Homo sapiens, UniProt P30542)
# Experiment: [3H]DPCPX binding to human A1 receptors expressed in CHO cells
# Settings: read-out: Ki, [3H]DPCPX binding to human A1 receptors expressed in CHO cells; geometric mean (95% confidence interval); >1000 = no appreciable binding
smiles,measurement,value
CCCn1c(=O)c2[nH]c(-c3cc(NC(=O)Cc4ccccc4)n(C)n3)nc2n(CCC)c1=O [AS35],Ki,0.055 µM
